Assays:
Set-up in all cases: expressed in transfected cells
[1] = target: T1, MC4R (Homo sapiens, UniProt P32245); test: Competitive radioligand binding, displacement of 125I-AGRP, HEK293 cells expressing hMC4R
[2] = target: T1, MC4R; test: Competitive radioligand binding, displacement of 125I-NDP-MSH, HEK293 cells expressing hMC4R
[3] = target: T1, MC4R; test: AlphaScreen cAMP assay, inverse agonist activity at hMC4R; assay type: cell-based; settings: Table 10; apparent potency; none = no inverse agonist activity
[4] = target: T1, MC4R; test: AlphaScreen cAMP assay, antagonist activity (Schild, NDP-MSH) at hMC4R; assay type: cell-based; settings: Table 10
[5] = Table 10; read-out: hMC4R 125I-AGRP IC50

Amino acid sequences for entries named in this document (tags omitted).
UniProt P32245, whole entry: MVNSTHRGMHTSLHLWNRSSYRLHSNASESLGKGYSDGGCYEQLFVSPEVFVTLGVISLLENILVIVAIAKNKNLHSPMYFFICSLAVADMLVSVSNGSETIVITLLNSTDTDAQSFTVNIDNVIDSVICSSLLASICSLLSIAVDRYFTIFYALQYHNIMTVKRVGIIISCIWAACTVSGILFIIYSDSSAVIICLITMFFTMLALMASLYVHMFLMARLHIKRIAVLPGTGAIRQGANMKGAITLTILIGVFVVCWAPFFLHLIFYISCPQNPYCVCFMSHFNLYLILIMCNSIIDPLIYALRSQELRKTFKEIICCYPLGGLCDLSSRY

Substance | IC50 [1, 5] [nM] | IC50 ([2]; Table 10; read-out: hMC4R 125I-NDP-MSH IC50) [nM] | EC50 [3] [nM] | hMC4R Antagonist pA2 [4] | IC50 ([1]; read-out: hMC4R 125I-AGRP IC50; Table 10) [nM] | IC50 ([2]; read-out: hMC4R 125I-NDP-MSH IC50; Table 10) [nM]
c[Pro-Arg-Phe-Phe-DDap-Ala-Phe-DPro] [Peptide 9 (Example 1)] | 11 ± 4 | 16 ± 1 | 4 ± 2 | – | – | –
c[Pro-Arg-Phe-Phe-Dap-Ala-Phe-DPro] [Peptide 2 (Example 1)] | 11 ± 1 | – | 3.4 ± 1.9 | 8.81 ± 0.02 | – | –
c[Pro-Arg-Phe-Phe-His-Ala-Phe-DPro] [Peptide 10 (Example 1)] | – | – | – | – | 44 ± 7 | 120 ± 50

Source: patent publication US11332499B2, “Cyclic peptides and methods of use thereof” (Regents of the University of Minnesota, priority 2018, dated 2022)
